Assay results as given in patent publication US5886007A (priority 1997, dated 1999).

Target: rat brain AChE (Rattus norvegicus, UniProt P37136)
Conditions: IC50 BChE divided by IC50 for AChE

c1ccc2c(NCCCCCCCCCNc3c4c(nc5ccccc35)CCCC4)c3c(nc2c1)CCCC3
Selectivity: 404
